# Test results as given in US8987335B2, “Substituted (E)-N′-(1-phenylethylidene)benzohydrazide analogs as histone demethylase inhibitors” (University of Utah Research Foundation, priority 2011, dated 2015).
# Protein sequences, listed by entry. Tags and fused reporters are not part of them.
# UniProt P21397, whole entry: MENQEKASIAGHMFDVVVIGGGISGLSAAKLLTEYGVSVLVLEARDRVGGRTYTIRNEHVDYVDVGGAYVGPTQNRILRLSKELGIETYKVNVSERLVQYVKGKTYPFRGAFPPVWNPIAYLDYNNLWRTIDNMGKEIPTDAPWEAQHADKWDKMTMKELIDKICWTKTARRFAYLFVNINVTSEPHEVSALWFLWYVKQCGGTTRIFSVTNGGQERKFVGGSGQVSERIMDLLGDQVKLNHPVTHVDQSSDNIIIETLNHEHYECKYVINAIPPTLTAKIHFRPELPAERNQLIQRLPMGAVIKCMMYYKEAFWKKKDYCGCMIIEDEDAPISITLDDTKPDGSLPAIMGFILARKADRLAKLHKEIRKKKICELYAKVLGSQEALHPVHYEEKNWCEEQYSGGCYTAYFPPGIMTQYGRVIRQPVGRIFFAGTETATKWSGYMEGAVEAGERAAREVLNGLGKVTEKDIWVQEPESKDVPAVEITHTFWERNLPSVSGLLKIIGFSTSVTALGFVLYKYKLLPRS
# UniProt P27338, whole entry: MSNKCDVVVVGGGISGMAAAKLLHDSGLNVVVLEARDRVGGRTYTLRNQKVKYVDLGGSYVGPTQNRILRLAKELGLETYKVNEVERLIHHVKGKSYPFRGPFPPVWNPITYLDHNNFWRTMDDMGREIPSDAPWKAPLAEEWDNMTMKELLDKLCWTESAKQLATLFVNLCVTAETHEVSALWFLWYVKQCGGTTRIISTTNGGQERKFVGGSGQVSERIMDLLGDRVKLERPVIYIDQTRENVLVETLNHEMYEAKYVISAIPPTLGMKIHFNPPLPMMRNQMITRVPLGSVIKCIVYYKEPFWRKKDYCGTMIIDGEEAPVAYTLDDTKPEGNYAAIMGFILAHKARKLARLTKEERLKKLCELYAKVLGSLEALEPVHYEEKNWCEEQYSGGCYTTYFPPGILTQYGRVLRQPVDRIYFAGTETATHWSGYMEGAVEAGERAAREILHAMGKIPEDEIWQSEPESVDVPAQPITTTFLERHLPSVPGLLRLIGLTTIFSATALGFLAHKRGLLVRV
# Tests used:
# MAO A = MAO A (Homo sapiens (Human), UniProt P21397); assay: Monoamine Oxidase assay (MAO-Glo), MAO A; type: biochemical
# MAO B = MAO B (Homo sapiens (Human), UniProt P27338); assay: Monoamine Oxidase assay (MAO-Glo), MAO B; type: biochemical
smiles,measurement,setting,value
"C/C(=N\NC(=O)c1cccc(S(=O)(=O)N(C)C)c1)c1cc(Cl)ccc1O [Compound 18, (E)-3-(2-(1-(5-chloro-2-hydroxyphenyl)ethylidene)hydrazinecarbonyl)-N,N-dimethylbenzenesulfon-amide]",IC50,MAO A,> 300 µM
same,IC50,MAO B,> 300 µM
